## Binding of CDR-mutated scFvs to a peptide of the spike HR2 region

Values reported by Li et al. 2023, doi:10.1038/s41467-023-39022-2 (FLAb copy).

Target peptide (SARS-CoV-2 spike, HR2 region): PDVDLGDISGINAS

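The parent was found by panning a naive human phage display library on the peptide. This is the validation round: designs drawn from the data on random variants, tested in the same kind of assay. Their group label is 14H_Rand (Rand: our label for a block that the file lists under HC and that is probably the random mutants of the ten best first-round binders). The assay is AlphaSeq: two haploid yeast populations carry antibody and antigen on their surface. Pairs that bind mate more often; barcode pairs of the diploids are counted by sequencing. Scores were corrected for input abundance and mapped to Kd with protein pairs of known affinity run in the same pool. There are six technical replicates.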

Each scFv is VH, three GGGGS repeats, VL, as in the parent Ab-14, and differs from it in the CDRs of the heavy chain only.
VH: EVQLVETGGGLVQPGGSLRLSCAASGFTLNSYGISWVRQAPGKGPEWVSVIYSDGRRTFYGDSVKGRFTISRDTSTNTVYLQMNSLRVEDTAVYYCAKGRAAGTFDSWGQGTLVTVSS
VL: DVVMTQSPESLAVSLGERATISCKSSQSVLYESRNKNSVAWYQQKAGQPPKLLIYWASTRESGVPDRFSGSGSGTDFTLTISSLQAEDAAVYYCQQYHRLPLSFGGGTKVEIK

Variants are written as CDR1, CDR2 and CDR3 of the heavy chain (limits as in the source). Parent: GFTLNSYGIS, VIYSDGRRTFYGDSVK, GRAAGTFDS.
The read-out is the apparent dissociation constant on a log10 scale (nM): the lower, the stronger.
The mean shown is taken over the replicates in which the pair was detected.
"nd" marks a missing value. The strain was present, yet no cells mated with the target were sequenced in that replicate, which points to weak or no binding.
The parent sequence was in this pool as ten entries: three were never detected, three once, and four in most replicates, with averages from 0.34 to 2.37.
The range of this assay differs from that of the first round, and the authors advise against merging the two.
The authors' rule: three or more of the six replicates give a measured affinity, fewer mean a poor binder.
Empty control strains, which show no peptide, gave a signal in 1% of pairings with all heavy chain designs; the median was 2.08 and 95% of these signals were weaker than 0.84. No background was subtracted. Also given: how often the same scFv was detected with the empty control strains, with their mean in brackets.

CDR-H1 | CDR-H2 | CDR-H3 | log10 Kd (nM) by replicate | mean log10 Kd (nM) | signal with controls
GFTLNEYGIS | VQFSDNRRTFYTDSVK | GRFAGTFDS | nd / nd / nd / nd / nd / 2.13 | 2.13 | 0 of 18
GFTLNDYGIS | VIYSDGRRTFYSDSPK | GRAAGFFYS | nd / nd / nd / nd / nd / nd | nd | 0 of 18
GFTLNSYAIS | VIYSDGRRTFYSDSVK | ERAGGTSDS | nd / nd / nd / nd / nd / nd | nd | 0 of 18
GFTLNDYGIS | VIYSDERRTFYGDSVK | GRAALFFIQ | nd / nd / nd / nd / nd / nd | nd | 0 of 18
GFTLNDYGIS | VIYSDGRRTQYTDLVK | GRAAGTFDE | nd / nd / nd / nd / nd / nd | nd | 0 of 18
GFDLNSYGIS | VYYSDGRRTFYGDSVK | GRAAGWFNS | nd / nd / nd / nd / nd / nd | nd | 0 of 18
GFTLDSYGIS | VIHSDGRRTFYGDCVK | GRAAGTALS | nd / nd / nd / nd / nd / nd | nd | 0 of 18
GFKLNSYGIS | VIYADGVRTFYGDSVK | GRAAGTNKS | nd / nd / nd / nd / nd / nd | nd | 0 of 18
GFTLNSFGIS | VIYSDGRRTFYDDSQK | HQLDGTFDS | nd / nd / nd / nd / nd / nd | nd | 0 of 18
GFTLNEYGIS | VIYSDGRRTFYGDSVK | LRAAVTFDQ | nd / nd / nd / nd / nd / nd | nd | 0 of 18
GFTLNSCGIS | VIYADGRRTFYGDSVK | GRAAGTNKS | nd / nd / nd / nd / nd / nd | nd | 0 of 18
GFTLNSYGIS | VKYSDGRRTFYDDSVK | GQLAGTADS | nd / nd / nd / nd / nd / nd | nd | 0 of 18
GFTLNRYGIS | VIYSDGRRTQEDDSVK | GRAAGTFDS | nd / nd / nd / nd / nd / nd | nd | 0 of 18
GFLLNSYGMS | VIYADGRRTFYGDSVK | GRAAGTKKS | nd / nd / nd / nd / nd / nd | nd | 0 of 18
GFTLNDYGIY | VIYSDGRRTFYNDSVK | GRRALTFIS | nd / nd / nd / nd / nd / nd | nd | 0 of 18
GFTLNEYGIS | VIYRDGRRTFYTDSVK | GRFAGTFDS | nd / nd / nd / nd / nd / nd | nd | 0 of 18
GFTLNDYGIS | VCYSDGRRTQYIDSVK | GRAAGTFDS | nd / nd / nd / nd / nd / nd | nd | 0 of 18
GFTLNAYGIS | VIYSDGRRTFHSDSMK | GRAGMTFDS | nd / nd / nd / nd / nd / nd | nd | 0 of 18
GHTLNSYGIS | VIYSDGRRTFYDDSVK | GQLANTFDS | nd / nd / nd / nd / nd / nd | nd | 0 of 18
GFTLNEFGIC | VIYSDGRRTAYTDSVK | GRFAGTFDS | nd / nd / nd / nd / nd / nd | nd | 0 of 18
GFTLNSYGIS | VIYSDLRRTFYNQSVK | GRAGGTFDS | nd / nd / nd / nd / nd / nd | nd | 0 of 18
GFTHNEYGIS | VIYSDGRRTFYTDSVK | GEQAGTFDS | nd / nd / nd / nd / nd / nd | nd | 0 of 18
GFQLNDYGIS | VIYSDGRRTQYIDHVK | GKAAGTFDS | nd / nd / nd / nd / nd / nd | nd | 0 of 18
GFTLNSYGIS | VIYADGRRTFYKDSVK | GRAAGTNKS | nd / nd / nd / nd / nd / nd | nd | 0 of 18
GFTLDSYGIS | VIYSDGRRTFYGDAVK | GRAAGTALS | nd / nd / nd / nd / nd / nd | nd | 0 of 18
GFTLPQYGIS | VIYSDGRRTFYSDSVK | GRAAGFFDS | nd / nd / 1.81 / 2.12 / 1.65 / 2.33 | 1.98 | 0 of 18
GFTLNDYHIS | VIYSDIRRTNYIDSVK | GRAAGTFDS | nd / nd / nd / nd / nd / nd | nd | 0 of 18
GFTLNQYGIS | VIYSDGRRTFYSDSVK | DRAAVFFDP | nd / nd / nd / nd / nd / nd | nd | 0 of 18
GFTLSIYGIS | VIYSDGRRTFYTDSVK | GRFAGTFDC | nd / nd / nd / nd / nd / nd | nd | 0 of 18
GFTLDSYGIS | VIYSDGRRTFYGDSVK | SRAAGTALS | 1.40 / 1.08 / 0.60 / 1.74 / 2.07 / 0.87 | 1.29 | 0 of 18
GFTLDKYGIS | VIYSDGRETFYGDSVK | GRAARTALS | nd / nd / nd / nd / nd / nd | nd | 1 of 18 (2.90)
GFDLDSYGIS | VIYSDGRRTFYGDSVK | GRRAGWFES | nd / nd / nd / nd / nd / 2.21 | 2.21 | 1 of 18 (2.81)
GFDLNSYGIS | VIYSDGRRTFYGKSVK | GRAAHWNNS | nd / nd / nd / nd / nd / nd | nd | 0 of 18
GFTLNQYGIS | VIYSDGRDVFYSISVK | GRAAGFQDS | nd / nd / nd / nd / nd / nd | nd | 0 of 18
GFTLMEYGIS | VIYSDGRRTFYTDSVK | GRFAGTFDS | nd / nd / nd / nd / nd / nd | nd | 1 of 18 (2.74)
FFTDNQYGIS | VIYSDGRRTFYSDSVK | GRAAGFFDS | nd / nd / nd / nd / nd / nd | nd | 1 of 18 (2.22)
RFTLNCYGIS | VIYSDGRRTQYIDSVK | GRIAGTFDS | nd / nd / nd / nd / nd / nd | nd | 0 of 18